Earlier results on one compound are cited in patent US10149644B2, “Curcumin derivatives for amyloid-β plaque imaging” (The General Hospital Corporation, priority 2008, dated 2018).

Chains of the proteins cited; added tags and fusions are not shown. Residues count along the entry.
UniProt P05067, 672-711 limits assumed: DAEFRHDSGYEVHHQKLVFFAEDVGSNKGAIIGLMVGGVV

In general, Kd refers to the constant that tells how readily two partners part at equilibrium.

The target of the data set is T1, Aβ40 aggregates (Homo sapiens, UniProt P05067).
T1 construct: Synthetic amyloid-b protein (1-40) was purchased from rPeptide; purchased rPeptide (Bogart, Ga.)
The conditions noted are these: reported values used for comparison; read-out: Kd towards Aβ aggregates (literature); cited from earlier work.

Turning to `Cc1ccc2c(c1)sc(-c1ccc(N(C)C)cc1)[n+]2C.[Cl-]` [Thioflavin T], the dissociation constant (Kd) is 580 nM.
